{
  "source": "PubChem BioAssay AID2716",
  "about": "(Broad Institute, 2010)",
  "note": "This is a selection; strong and weak results do not stand in their true shares. Activity calls are given as the source filed them.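 How the source made its calls: active means every valid replicate shows activation above 250% relative to neutral control wells; inactive means the rest, any valid replicate at or below 250%.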",
  "data": [
    {"experiment": "restored growth of temperature-sensitive Mot1-301 yeast – S. cerevisiae, ATP luminescence, 38.5C, SUMOylation pathway inhibitor project, primary screen (AID 2716);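 further: OY570 slx delta 5 strain wells were the positive control but not used for scaling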", "details": "S. cerevisiae Mot1-301 growth rescue, at 18.8 µM, stronger effect = higher value, percent above DMSO median, 100 means doubled", "values": [
      {"smiles": "CCc1ccc(OP(C)(=O)N2CCN(c3ccc([N+](=O)[O-])cc3)CC2)cc1", "note": "(stereo unspecified)", "growth rescue": "inactive: -4.25%"},
      {"smiles": "CP(=O)(NC(=O)Nc1ccccc1)Oc1ccccc1", "note": "(stereo unspecified)", "growth rescue": "inactive: 0.893%"},
      {"smiles": "CP(=O)(Oc1ccccc1)OC(c1ccccc1)C(F)(F)F", "note": "(stereo unspecified)", "growth rescue": "inactive: -1.28%"},
      {"smiles": "Cc1cccc(C)c1OP(C)(=O)Nc1ccc(SC(F)(F)F)cc1", "note": "(stereo unspecified)", "growth rescue": "inactive: 10.3%"},
      {"smiles": "CP(=O)(Nc1ccc(SC(F)(F)F)cc1)Oc1ccc(Cl)cc1", "note": "(stereo unspecified)", "growth rescue": "inactive: 4.93%"},
      {"smiles": "COc1ccccc1OP(C)(=O)Nc1ccccc1", "note": "(stereo unspecified)", "growth rescue": "inactive: -33.5%"},
      {"smiles": "CP(=O)(Nc1ccccc1Br)Oc1ccccc1", "note": "(stereo unspecified)", "growth rescue": "inactive: -3.57%"},
      {"smiles": "CP(=S)(Nn1cnnc1)Oc1ccccc1", "note": "(stereo unspecified)", "growth rescue": "inactive: 1.94%"},
      {"smiles": "CP(=O)(Nc1ccc(SC(F)(F)F)cc1)Oc1ccccc1", "note": "(stereo unspecified)", "growth rescue": "inactive: 7.61%"},
      {"smiles": "CCCOc1ccc(NP(C)(=O)Oc2ccc(Cl)cc2)cc1", "note": "(stereo unspecified)", "growth rescue": "inactive: 264%"},
      {"smiles": "COc1ccccc1OP(C)(=O)Nc1c(C)cccc1C", "note": "(stereo unspecified)", "growth rescue": "inactive: 7.39%"},
      {"smiles": "CN1CCCCC1COC(=O)C1(O)c2ccccc2CCc2ccccc21", "note": "(stereo unspecified)", "growth rescue": "inactive: -13.3%"},
      {"smiles": "CCOC(=O)C(CC)C1=NC(C)(C)Cc2ccccc21.O=[N+]([O-])c1cc([N+](=O)[O-])c(O)c([N+](=O)[O-])c1", "note": "(stereo unspecified)", "growth rescue": "inactive: -4.04%"},
      {"smiles": "O=[N+]([O-])c1cc([N+](=O)[O-])c(Nc2nnnn2CCO)c([N+](=O)[O-])c1", "growth rescue": "inactive: 10.8%"},
      {"smiles": "CC1=C2N=C(C=C3N=C(C(C)=C4[N-][C@@](C)([C@@H]5N=C1[C@](C)(CCC(=O)NC[C@@H](C)OP(=O)([O-])O[C@H]1[C@@H](O)[C@@H](n6cnc7cc(C)c(C)cc76)O[C@@H]1CO)[C@H]5CC(N)=O)[C@@](C)(CC(N)=O)[C@@H]4CCC(N)=O)[C@@](C)(CC(N)=O)[C@@H]3CCC(N)=O)C(C)(C)[C@@H]2CCC(N)=O.[C-]#N.[Co+3]", "growth rescue": "inactive: 17%"},
      {"smiles": "Cc1nc2ccc3ccccc3c2s1.O=[N+]([O-])c1cc([N+](=O)[O-])c(O)c([N+](=O)[O-])c1", "growth rescue": "inactive: -28.3%"},
      {"smiles": "O=[N+]([O-])c1cc([N+](=O)[O-])c(-c2cnn(-c3ccccc3)c2)c([N+](=O)[O-])c1", "growth rescue": "active: 469%"},
      {"smiles": "O=[N+]([O-])c1cc([N+](=O)[O-])c(-n2nnc3ccccc32)c([N+](=O)[O-])c1", "growth rescue": "inactive: 0.825%"},
      {"smiles": "CP(=O)(Nc1cccc(Br)c1)Oc1ccccc1", "note": "(stereo unspecified)", "growth rescue": "inactive: -7.02%"},
      {"smiles": "Cc1cc(C)cc(OP(C)(=O)Nc2ccccn2)c1", "note": "(stereo unspecified)", "growth rescue": "inactive: -15.6%"},
      {"smiles": "Cc1ccc(C)c(NP(C)(=O)Oc2ccccc2)c1", "note": "(stereo unspecified)", "growth rescue": "inactive: -15.8%"},
      {"smiles": "Cc1cc(C)cc(OP(C)(=O)Nc2ccc(C)cc2C)c1", "note": "(stereo unspecified)", "growth rescue": "inactive: -7.45%"},
      {"smiles": "CCOC(=O)c1ccc(NP(C)(=O)Oc2cc(C)cc(C)c2)cc1", "note": "(stereo unspecified)", "growth rescue": "inactive: 6.59%"},
      {"smiles": "COc1ccccc1OP(C)(=O)Nc1cccc(Br)c1", "note": "(stereo unspecified)", "growth rescue": "inactive: 187%"},
      {"smiles": "CC1=NCCc2c1[nH]c1ccccc21.O=[N+]([O-])c1cc([N+](=O)[O-])c(O)c([N+](=O)[O-])c1", "growth rescue": "inactive: -11.7%"},
      {"smiles": "O=C(O)c1cccc(Nc2c([N+](=O)[O-])cc([N+](=O)[O-])cc2[N+](=O)[O-])c1", "growth rescue": "inactive: -5.42%"}
    ]}
  ]
}
